{"sequences": {"note": "Amino acid sequences for entries named in this document (tags omitted). A change or cut given only in a name is not applied to a line headed by its entry.", "UniProt Q9Y233": "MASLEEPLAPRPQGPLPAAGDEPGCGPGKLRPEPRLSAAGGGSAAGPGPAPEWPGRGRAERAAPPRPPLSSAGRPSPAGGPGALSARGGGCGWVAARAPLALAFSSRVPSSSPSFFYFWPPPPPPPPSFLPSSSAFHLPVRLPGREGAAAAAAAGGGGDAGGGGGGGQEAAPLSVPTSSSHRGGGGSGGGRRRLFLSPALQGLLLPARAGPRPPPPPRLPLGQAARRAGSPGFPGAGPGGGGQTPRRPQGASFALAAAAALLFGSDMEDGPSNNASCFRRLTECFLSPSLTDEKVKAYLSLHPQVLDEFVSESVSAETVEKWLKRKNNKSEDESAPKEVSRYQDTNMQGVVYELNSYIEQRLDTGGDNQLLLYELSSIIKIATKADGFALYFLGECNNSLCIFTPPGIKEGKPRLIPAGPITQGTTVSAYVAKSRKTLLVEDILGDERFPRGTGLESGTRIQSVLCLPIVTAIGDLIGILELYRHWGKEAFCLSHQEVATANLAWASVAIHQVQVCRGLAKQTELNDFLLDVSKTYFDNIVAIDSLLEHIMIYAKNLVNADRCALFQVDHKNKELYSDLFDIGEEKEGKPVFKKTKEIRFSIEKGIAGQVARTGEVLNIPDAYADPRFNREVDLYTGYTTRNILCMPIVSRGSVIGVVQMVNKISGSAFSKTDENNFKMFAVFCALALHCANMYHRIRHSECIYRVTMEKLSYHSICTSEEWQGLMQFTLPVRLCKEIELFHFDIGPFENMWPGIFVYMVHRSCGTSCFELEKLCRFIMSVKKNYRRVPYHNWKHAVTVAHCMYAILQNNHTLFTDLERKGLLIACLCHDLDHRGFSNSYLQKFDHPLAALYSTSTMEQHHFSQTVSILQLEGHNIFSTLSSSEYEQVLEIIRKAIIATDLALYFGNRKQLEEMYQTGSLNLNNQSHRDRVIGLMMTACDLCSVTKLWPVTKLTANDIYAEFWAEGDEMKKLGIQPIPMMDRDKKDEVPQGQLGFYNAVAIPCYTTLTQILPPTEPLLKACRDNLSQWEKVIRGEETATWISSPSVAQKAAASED"}, "source": "ChEMBL document CHEMBL5143617", "about": "(Eur J Med Chem, 2022)", "target": "cAMP and cAMP-inhibited cGMP 3',5'-cyclic phosphodiesterase 10A (Homo sapiens, UniProt Q9Y233)", "assay": "Inhibition of PDE10A (unknown origin) preincubated for 20 mins followed by substrate addition and measured after 1 hr by PEDlight AMP detection reagent based luminescence assay", "note": "Counter-ions that a name gives are not always drawn.", "data": [{"smiles": "COc1ccc(Cc2nccc3cc(OC)c(OC)cc23)cc1OC", "note": "[PAPAVERINE HYDROCHLORIDE]", "values": [{"measurement": "IC50", "result": 3.16, "unit": "µM"}]}]}
